From ChEMBL document CHEMBL5346948, “Expanding Chemical Probe Space: Quality Criteria for Covalent and Degrader Probes” (J Med Chem, 2023)

Tested on: GTPase KRas (Homo sapiens), P01116 [G12C]
Test: Binding affinity to KRAS G12 mutant (unknown origin) assessed as kinact/Ki ratio

- Ratio: 289000 s⁻¹ M⁻¹
SMILES: CCn1c(-c2cccnc2[C@H](C)OC)c2c3cc(ccc31)N1CCO[C@@H](C[C@H](NC(=O)[C@H](C(C)C)N(C)C(=O)C3(F)CCN(C(=O)C#CC(C)(C)N(C)C)CC3)C(=O)N3CCC[C@H](N3)C(=O)OCC(C)(C)C2)C1
